Experiments:
[1] = cited from earlier work

Row | Substance | Solubility (gm solute per 100 gm water at 20° C.) [1] | Heat Absorbed (during dissolution of compound in 100 gm of water at 25° C. in kJ) (saturated solution in 100 gm of water at 25° C.) [kJ] | Theoretical Change in Temperature of a saturated solution (° C.) (saturated solution, no heat loss) [°C]
1 | ammonium nitrite | 150 gm solute per 100 gm water |  | 
2 | ammonium thiocyanide | 144 gm solute per 100 gm water |  | 
3 | sodium perchlorite dihydrate |  | 32.22 | 26
